According to US4053635A, “Substituted amides of 3-methyl-4-phenyl-3-butenoic acid, with a high hypolipemizing activity” (Istituto Biochimico Italiano di Loredana Lorenzini S.a.s., priority 1974, dated 1977):

Test: in vivo
Settings: po, per os, rat, read-out: LD 50 per os in the rat

Structure (SMILES)	LD50 [mg/kg]
C/C(=C\c1ccccc1)CC(=O)NCCO [IIIa, Monoethanolamide of 3-methyl-4-phenyl-3-butenoic acid]	1380
CCN(CC)C(=O)C/C(C)=C/c1ccccc1 [IIId, Diethylamide of 3-methyl-4-phenyl-3-butenoic acid]	2300
